According to ChEMBL document CHEMBL1255506, “Discovery of quinolines as selective glucocorticoid receptor agonists” (Bioorg Med Chem Lett, 2010):

Biological target: T1, Progesterone receptor (Homo sapiens, UniProt P06401)
T1 sequence (P06401 whole entry): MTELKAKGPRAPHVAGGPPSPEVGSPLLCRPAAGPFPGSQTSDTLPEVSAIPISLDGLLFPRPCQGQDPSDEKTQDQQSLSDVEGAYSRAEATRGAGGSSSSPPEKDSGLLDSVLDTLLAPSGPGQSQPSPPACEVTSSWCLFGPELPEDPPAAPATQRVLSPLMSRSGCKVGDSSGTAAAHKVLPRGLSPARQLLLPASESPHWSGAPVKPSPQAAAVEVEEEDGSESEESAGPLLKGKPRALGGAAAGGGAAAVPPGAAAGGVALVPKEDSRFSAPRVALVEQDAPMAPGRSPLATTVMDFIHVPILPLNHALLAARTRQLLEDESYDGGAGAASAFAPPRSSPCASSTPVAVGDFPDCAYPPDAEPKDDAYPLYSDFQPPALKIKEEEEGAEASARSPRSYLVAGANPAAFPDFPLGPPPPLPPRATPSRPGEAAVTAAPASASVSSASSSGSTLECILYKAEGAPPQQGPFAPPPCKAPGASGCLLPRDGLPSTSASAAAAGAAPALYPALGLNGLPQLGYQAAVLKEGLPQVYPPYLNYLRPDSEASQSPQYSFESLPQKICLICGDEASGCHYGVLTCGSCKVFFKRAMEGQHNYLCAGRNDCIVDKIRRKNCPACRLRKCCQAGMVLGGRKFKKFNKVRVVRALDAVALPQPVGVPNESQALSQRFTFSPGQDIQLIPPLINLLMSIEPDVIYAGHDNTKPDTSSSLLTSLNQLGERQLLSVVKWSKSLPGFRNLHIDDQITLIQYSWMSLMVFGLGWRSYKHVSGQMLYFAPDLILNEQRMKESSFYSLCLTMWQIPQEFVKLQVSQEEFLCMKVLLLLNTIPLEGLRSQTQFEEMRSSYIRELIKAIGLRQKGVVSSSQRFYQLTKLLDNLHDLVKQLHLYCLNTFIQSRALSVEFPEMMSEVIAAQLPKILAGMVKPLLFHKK
Assay: Binding affinity to human recombinant progesterone receptor expressed in baculovirus infected Sf9 cells

IC50: 20 nM
Compound: Cc1noc(=O)c2ccc(NC(=O)C(O)(CC(C)(C)c3cccc4c3OCC4)C(F)(F)F)cc12 (stereo unspecified)
